B1: Glycogen synthase kinase-3 beta (Homo sapiens), P49841 (parent)
chain: MSGRPRTTSFAESCKPVQQPSAFGSMKVSRDKDGSKVTTVVATPGQGPDRPQEVSYTDTKVIGNGSFGVVYQAKLCDSGELVAIKKVLQDKRFKNRELQIMRKLDHCNIVRLRYFFYSSGEKKDEVYLNLVLDYVPETVYRVARHYSRAKQTLPVIYVKLYMYQLFRSLAYIHSFGICHRDIKPQNLLLDPDTAVLKLCDFGSAKQLVRGEPNVSYICSRYYRAPELIFGATDYTSSIDVWSAGCVLAELLLGQPIFPGDSGVDQLVEIIKVLGTPTREQIREMNPNYTEFKFPQIKAHPWTKVFRPRTPPEAIALCSRLLEYTPTARLTPLEACAHSFFDELRDPNVKLPNGRDTPALFNFTTQELSSNPPLATILIPPHARIQAAASTPTNATAASDANTGDRGQTNNAASASASNST
partner: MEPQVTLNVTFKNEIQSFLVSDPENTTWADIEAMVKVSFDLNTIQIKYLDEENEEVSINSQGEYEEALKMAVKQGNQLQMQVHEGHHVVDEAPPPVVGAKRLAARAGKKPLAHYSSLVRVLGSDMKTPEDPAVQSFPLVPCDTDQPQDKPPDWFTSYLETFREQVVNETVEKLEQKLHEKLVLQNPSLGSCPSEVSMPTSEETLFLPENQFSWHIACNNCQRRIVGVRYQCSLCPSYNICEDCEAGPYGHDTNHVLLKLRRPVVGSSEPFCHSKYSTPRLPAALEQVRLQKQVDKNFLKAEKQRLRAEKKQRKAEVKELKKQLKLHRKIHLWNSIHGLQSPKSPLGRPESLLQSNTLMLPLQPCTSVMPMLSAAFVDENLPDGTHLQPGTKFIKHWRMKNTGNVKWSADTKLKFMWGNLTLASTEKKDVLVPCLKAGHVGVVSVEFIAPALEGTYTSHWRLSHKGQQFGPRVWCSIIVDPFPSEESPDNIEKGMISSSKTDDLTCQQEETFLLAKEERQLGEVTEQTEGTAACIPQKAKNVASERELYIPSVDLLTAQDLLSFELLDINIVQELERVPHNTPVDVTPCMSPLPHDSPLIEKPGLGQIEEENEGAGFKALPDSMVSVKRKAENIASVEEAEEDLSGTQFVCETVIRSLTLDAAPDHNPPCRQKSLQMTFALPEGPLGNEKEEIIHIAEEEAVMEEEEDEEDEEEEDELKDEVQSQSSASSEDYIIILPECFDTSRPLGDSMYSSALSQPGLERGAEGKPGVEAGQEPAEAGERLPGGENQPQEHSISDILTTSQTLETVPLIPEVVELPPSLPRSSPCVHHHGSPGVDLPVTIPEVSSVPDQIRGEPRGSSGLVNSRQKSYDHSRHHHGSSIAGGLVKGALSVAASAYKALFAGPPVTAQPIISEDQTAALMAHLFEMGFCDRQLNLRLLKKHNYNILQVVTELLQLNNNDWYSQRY

The values below come from IntAct's records for PubMed 24879152.

The variants in the test derive from B1. The settings on record: with nbr1_human NBR1, Q14596.
In the case of S9A, the “effect of a mutation on the interaction” value is given as “with no effect”.

Consider K85A, for which the “effect of a mutation on the interaction” value is on record as “disrupting interaction strength”.
